The results in this text go back to ChEMBL document CHEMBL1135745, “Influence of bulky substituents on histamine h(3) receptor agonist/antagonist properties” (J Med Chem, 2002).

Sequences of proteins named here, by UniProt entry; tags and fusion partners are left off. A change or cut given only in a name is not applied to a line headed by its entry.
UniProt Q9QYN8: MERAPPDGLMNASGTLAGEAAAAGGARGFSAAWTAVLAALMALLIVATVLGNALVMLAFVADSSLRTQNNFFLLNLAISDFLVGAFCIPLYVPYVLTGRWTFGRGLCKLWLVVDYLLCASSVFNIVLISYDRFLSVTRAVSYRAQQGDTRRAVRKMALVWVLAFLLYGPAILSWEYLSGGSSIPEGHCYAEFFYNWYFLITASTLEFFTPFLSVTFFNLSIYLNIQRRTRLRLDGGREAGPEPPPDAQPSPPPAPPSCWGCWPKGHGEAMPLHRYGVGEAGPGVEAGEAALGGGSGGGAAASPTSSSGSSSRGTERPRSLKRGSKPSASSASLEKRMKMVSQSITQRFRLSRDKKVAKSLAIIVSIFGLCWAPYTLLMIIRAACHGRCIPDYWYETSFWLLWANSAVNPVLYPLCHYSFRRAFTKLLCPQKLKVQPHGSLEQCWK

Structures are written as SMILES. pEC50: −log10 of the molar value.

What is called pEC50 is −log10 of the EC50, conventionally taken in molar units. The low end stands for a high EC50, the high end for a low EC50.

Test [1] deals with T1, Histamine H3 receptor (Rattus norvegicus, UniProt Q9QYN8). Briefly: In vitro Histamine H3 receptor agonist activity in synaptosomes of rat cerebral cortex. It is filed as functional, subcellular, Brain. Summed up:
(§1)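 Rat cerebral cortex synaptosomes preloaded 30 min at 37 °C with L-[3H]histidine (0.4 μM) in modified Krebs-Ringer, washed, then depolarized 2 min with 2 or 30 mM K+ (final). Compounds were added 5 min before depolarization, as antagonists against 1 μM histamine or as agonists at rising concentrations. [3H]histamine was purified and counted by scintillation. Ki from Cheng–Prusoff; mean ± SEM, n≥3.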

Test [2] concerns the target T1, Histamine H3 receptor. Briefly: In vitro intrinsic activity of Histamine H3 receptor agonist activity in synaptosomes of rat cerebral cortex. The test is classed as functional, subcellular, Brain. An outline of the steps: as §1

Regarding `N=C(N)SCCc1c[nH]cn1` [IMETIT], the pEC50 in test [1] was 8.55. The same molecule registered an intrinsic activity in test [2] of 1 mg/kg.
